Source: patent publication US12077636B2, “Highly soluble tris-(2,3-epoxypropyl)-isocyanurate and method for producing same” (NISSAN CHEMICAL CORPORATION, priority 2013, dated 2024)

Key:
[1] = Solubility test (1 g sample, solvent needed for a homogeneous and clear solution at 25° C.); assay type: physicochemical; conditions: for mass of sample capable of being dissolved into 100 g of the solvent: Ethyl acetate: per 100 g ethyl acetate; for mass of sample capable of being dissolved into 100 g of the solvent: Methyl ethyl ketone: per 100 g methyl ethyl ketone; for mass of sample capable of being dissolved into 100 g of the solvent: Toluene: per 100 g toluene
Experimental: From this amount of solvent, the mass of each sample that was capable of being dissolved into 100 g of the solvent was calculated.

[2] = Solubility test (4 g sample, solvent needed for a homogeneous and clear solution at 25° C.); assay type: physicochemical; conditions: for mass of sample capable of being dissolved into 100 g of the solvent: PGME: per 100 g propylene glycol monomethyl ether; for mass of sample capable of being dissolved into 100 g of the solvent: PGMEA: per 100 g propylene glycol monomethyl ether acetate; for mass of sample capable of being dissolved into 100 g of the solvent: Acetone: per 100 g acetone; for mass of sample capable of being dissolved into 100 g of the solvent: Acetonitrile: per 100 g acetonitrile
Experimental: (Solubility Test) […] From this amount of solvent, the mass of each sample that was capable of being dissolved into 100 g of the solvent was calculated. In Table 3, PGME is propylene glycol monomethyl ether and PGMEA is propylene glycol monomethyl ether acetate.

For `O=c1n(CC2CO2)c(=O)n(CC2CO2)c(=O)n1CC1CO1` (stereo not shown) [Example 2, tris-(2,3-epoxypropyl)-isocyanurate], the “mass of sample capable of being dissolved into 100 g of the solvent: Ethyl acetate” value (“mass of sample capable … Ethyl acetate” below) [1] was 6.3 g, the “mass of sample capable of being dissolved into 100 g of the solvent: Methyl ethyl ketone” value (from here on “mass of sample capable … Methyl ethyl ketone”) [1] was 9.3 g and the “mass of sample capable of being dissolved into 100 g of the solvent: Toluene” value (“mass of sample capable … Toluene” below) [1] was 2.1 g.
With `O=c1n(CC2CO2)c(=O)n(CC2CO2)c(=O)n1CC1CO1` (stereo not shown) [Example 1, tris-(2,3-epoxypropyl)-isocyanurate] the “mass of sample capable … Methyl ethyl ketone” value [1] was 6.8 g and the “mass of sample capable … Toluene” value [1] was 1.8 g.
With `O=c1n(CC2CO2)c(=O)n(CC2CO2)c(=O)n1CC1CO1` (stereo not shown) [Example 6, tris-(2,3-epoxypropyl)-isocyanurate] the “mass of sample capable of being dissolved into 100 g of the solvent: PGME” value [2] was 2.5 g and the “mass of sample capable of being dissolved into 100 g of the solvent: PGMEA” value [2] was 5.1 g.
In the case of `O=c1n(CC2CO2)c(=O)n(CC2CO2)c(=O)n1CC1CO1` (stereo not shown) [Example 10, tris-(2,3-epoxypropyl)-isocyanurate], the “mass of sample capable of being dissolved into 100 g of the solvent: Acetone” value [2] is reported as 24 g and the “mass of sample capable of being dissolved into 100 g of the solvent: Acetonitrile” value [2] is reported as 71 g.
In the case of `O=c1n(CC2CO2)c(=O)n(CC2CO2)c(=O)n1CC1CO1` (stereo not shown) [Example 3, tris-(2,3-epoxypropyl)-isocyanurate], the “mass of sample capable … Ethyl acetate” value [1] is reported as 6.1 g, the “mass of sample capable … Methyl ethyl ketone” value [1] is reported as 9.0 g and the “mass of sample capable … Toluene” value [1] is reported as 2.0 g.
With `O=c1n(CC2CO2)c(=O)n(CC2CO2)c(=O)n1CC1CO1` (stereo not shown) [Synthesis Example 1, tris-(2,3-epoxypropyl)-isocyanurate] the “mass of sample capable of being dissolved into 100 g of the solvent: Acetone” value [2] was 7.8 g, the “mass of sample capable of being dissolved into 100 g of the solvent: Acetonitrile” value [2] was 17 g and the “mass of sample capable of being dissolved into 100 g of the solvent: PGME” value [2] was 1.6 g. The “mass of sample capable of being dissolved into 100 g of the solvent: PGMEA” value [2] was 2.2 g, the “mass of sample capable … Ethyl acetate” value [1] was 1.4 g and the “mass of sample capable … Methyl ethyl ketone” value [1] was 1.7 g. The “mass of sample capable … Toluene” value [1] was 0.5 g.
